Source: publication PMC10034064, “Expanding the apelin receptor pharmacological toolbox using novel fluorescent ligands” (Frontiers in Endocrinology, 2023)

Assays:
apelin receptor [1] = biological target: T1, apelin receptor (Homo sapiens, UniProt P35414); test: Dynamic mass redistribution assay in CHO-APLNR cells; type: cell-based; parameters: host or cells: CHO-K1; settings: read-out: pD2 (converted)
T1 sequence (P35414 1-380): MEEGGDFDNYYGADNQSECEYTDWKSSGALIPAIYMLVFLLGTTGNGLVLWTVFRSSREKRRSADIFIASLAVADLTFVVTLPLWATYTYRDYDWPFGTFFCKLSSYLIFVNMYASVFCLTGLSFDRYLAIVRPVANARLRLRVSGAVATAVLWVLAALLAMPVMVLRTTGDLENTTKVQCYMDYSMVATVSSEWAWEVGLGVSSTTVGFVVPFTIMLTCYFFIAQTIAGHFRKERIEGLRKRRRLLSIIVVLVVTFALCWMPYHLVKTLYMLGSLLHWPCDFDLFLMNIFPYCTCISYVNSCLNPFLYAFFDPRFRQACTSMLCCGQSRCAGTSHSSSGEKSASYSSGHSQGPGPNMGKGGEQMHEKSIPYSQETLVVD

[2] = biological target: T2, human apelin receptor (AGTRL1) (Homo sapiens, UniProt P35414); test: PathHunter GPCR internalisation assay in U2OS cells; type: cell-based; settings: U2OS cells overexpressing human apelin receptor, 90 mins, n = 3; read-out: pD2 (converted)
T2 construct: host or cells: U2OS
T2 sequence (P35414 1-380): T1 sequence (P35414 1-380)

apelin receptor [3] = biological target: T1, apelin receptor; test: Fluorescent ligand binding (saturation, specificity, competition) in CHO-APLNR cells by high content imaging; parameters: host or cells: CHO-K1
apelin receptor [4] = biological target: T1, apelin receptor; test: Radioligand competition binding against [125I]-apelin-13 in human left ventricle homogenate; parameters: Surgical samples of human left ventricle (HLV) tissue were obtained with informed consent; from tissue; host or cells: human left ventricle homogenate; settings: competition against 0.1 nM [125I]-apelin-13, human left ventricle homogenate, 1.5 mg/mL protein

EC50 (apelin receptor [1]): 15.5 nM | EC50 [2]: 2.14 nM | Ki (apelin receptor [3]): 282 nM | Ki (apelin receptor [4]): 4.68 nM
Structure (SMILES): CSCC[C@H](NC(=O)[C@H](CS)NC(=O)[C@H](CCCNC(=N)N)NC(=O)[C@H](CCCNC(=N)N)NC(=O)[C@@H](N)CCC(N)=O)C(=O)N1CCC[C@H]1C(=O)N[C@@H](CC(C)C)C(=O)N[C@@H](Cc1c[nH]cn1)C(=O)N[C@@H](CO)C(=O)N[C@@H](CCCNC(=N)N)C(=O)N[C@H](C(=O)N1CCC[C@H]1C(=O)N[C@@H](Cc1ccccc1)C(=O)N1CCC[C@H]1C(=O)O)C(C)C [ELA-14, reference compound]
